Measured values from US12171806B2, “Therapeutic regimens and methods for lowering blood glucose and/or body weight using GLP-1R and GCGR balanced agonists” (priority 2021, dated 2024).

Test: Phase 1 MAD study of ALT-801: adverse events (TEAEs), safety overview
Settings: M1 1.2 mg (N = 7)

CC[C@H](C)[C@H](NC(=O)[C@H](Cc1ccccc1)NC(=O)[C@H](CCC(=O)O)NC(=O)[C@@H]1CCCCNC(=O)CC[C@H](NC(=O)[C@H](CC(=O)O)NC(=O)[C@H](CC(C)C)NC(=O)[C@H](Cc2ccc(O)cc2)NC(=O)[C@H](CCCCN)NC(=O)[C@H](CO)NC(=O)[C@H](Cc2ccc(O)cc2)NC(=O)[C@H](CC(=O)O)NC(=O)[C@H](CO)NC(=O)[C@@H](NC(=O)[C@H](Cc2ccccc2)NC(=O)[C@@H](NC(=O)CNC(=O)[C@H](CCC(N)=O)NC(=O)C(C)(C)NC(=O)[C@@H](N)Cc2c[nH]cn2)[C@@H](C)O)[C@@H](C)O)C(=O)N[C@@H](CCCCNC(=O)[C@H]2O[C@@H](OCCCCCCCCCCCCCCCCCC(=O)O)[C@H](O)[C@@H](O)[C@@H]2O)C(=O)N[C@@H](C)C(=O)N[C@@H](C)C(=O)N1)C(=O)N[C@@H](CCC(N)=O)C(=O)N[C@@H](Cc1c[nH]c2ccccc12)C(=O)N[C@@H](CC(C)C)C(=O)N[C@@H](CC(C)C)C(=O)N[C@@H](CCC(N)=O)C(=O)N[C@H](C(N)=O)[C@@H](C)O [ALT-801, pemvidutide]
TEAE Application site erythema; Severe; n: 0 | TEAE Blood and lymphatic system disorders; Mild; %: (0.0%) | TEAE Blood and lymphatic system disorders; Mild; n: 0 | TEAE Blood and lymphatic system disorders; Moderate; %: (0.0%) | TEAE Blood and lymphatic system disorders; Moderate; n: 0 | TEAE Blood and lymphatic system disorders; Severe; %: (0.0%) | TEAE Blood and lymphatic system disorders; Severe; n: 0 | TEAE Cardiac disorders; Mild; %: (0.0%) | TEAE Cardiac disorders; Mild; n: 0 | TEAE Cardiac disorders; Moderate; %: (0.0%) | TEAE Cardiac disorders; Moderate; n: 0 | TEAE Cardiac disorders; Severe; %: (0.0%) | TEAE Cardiac disorders; Severe; n: 0 | TEAE Constipation; Mild; %: (0.0%) | TEAE Constipation; Mild; n: 0 | TEAE Constipation; Moderate; %: (0.0%) | TEAE Constipation; Moderate; n: 0 | TEAE Constipation; Severe; %: (0.0%) | TEAE Constipation; Severe; n: 0 | TEAE Diarrhoea; Mild; %: (0.0%) | TEAE Diarrhoea; Mild; n: 0 | TEAE Diarrhoea; Moderate; %: (0.0%) | TEAE Diarrhoea; Moderate; n: 0 | TEAE Diarrhoea; Severe; %: (0.0%) | TEAE Diarrhoea; Severe; n: 0 | TEAE Dyspepsia; Mild; %: (0.0%) | TEAE Dyspepsia; Mild; n: 0 | TEAE Dyspepsia; Moderate; %: (0.0%) | TEAE Dyspepsia; Moderate; n: 0 | TEAE Dyspepsia; Severe; %: (0.0%) | TEAE Dyspepsia; Severe; n: 0 | TEAE Early satiety; Mild; %: (0.0%) | TEAE Early satiety; Mild; n: 0 | TEAE Early satiety; Moderate; %: (0.0%) | TEAE Early satiety; Moderate; n: 0 | TEAE Early satiety; Severe; %: (0.0%) | TEAE Early satiety; Severe; n: 0 | TEAE Eye disorders; Mild; %: (14.3%) | TEAE Eye disorders; Mild; n: 1 | TEAE Eye disorders; Moderate; %: (0.0%) | TEAE Eye disorders; Moderate; n: 0 | TEAE Eye disorders; Severe; %: (0.0%) | TEAE Eye disorders; Severe; n: 0 | TEAE Eye pain; Mild; %: (14.3%) | TEAE Eye pain; Mild; n: 1 | TEAE Eye pain; Moderate; %: (0.0%) | TEAE Eye pain; Moderate; n: 0 | TEAE Eye pain; Severe; %: (0.0%) | TEAE Eye pain; Severe; n: 0 | TEAE Fatigue; Mild; %: (14.3%) | TEAE Fatigue; Mild; n: 1 | TEAE Fatigue; Moderate; %: (0.0%) | TEAE Fatigue; Moderate; n: 0 | TEAE Fatigue; Severe; %: (0.0%) | TEAE Fatigue; Severe; n: 0 | TEAE Food poisoning; Mild; %: (0.0%) | TEAE Food poisoning; Mild; n: 0 | TEAE Food poisoning; Moderate; %: (0.0%) | TEAE Food poisoning; Moderate; n: 0 | TEAE Food poisoning; Severe; %: (0.0%) | TEAE Food poisoning; Severe; n: 0 | TEAE Fungal infection; Mild; %: (14.3%) | TEAE Fungal infection; Mild; n: 1 | TEAE Fungal infection; Moderate; %: (0.0%) | TEAE Fungal infection; Moderate; n: 0 | TEAE Fungal infection; Severe; %: (0.0%) | TEAE Fungal infection; Severe; n: 0 | TEAE Fungal skin; Mild; %: (0.0%) | TEAE Fungal skin; Mild; n: 0 | TEAE Gastrointestinal disorders; Mild; %: (14.3%) | TEAE Gastrointestinal disorders; Mild; n: 1 | TEAE Gastrointestinal disorders; Moderate; %: (14.3%) | TEAE Gastrointestinal disorders; Moderate; n: 1 | TEAE Gastrointestinal disorders; Severe; %: (0.0%) | TEAE Gastrointestinal disorders; Severe; n: 0 | TEAE Haematemesis; Mild; %: (0.0%) | TEAE Haematemesis; Mild; n: 0 | TEAE Haematemesis; Moderate; %: (0.0%) | TEAE Haematemesis; Moderate; n: 0 | TEAE Haematemesis; PLT; %: (0.0%) | TEAE Haematemesis; PLT; n: 0 | TEAE Haematemesis; Severe; %: (0.0%) | TEAE Haematemesis; Severe; n: 0 | TEAE Infections and infestations; Mild; %: (14.3%) | TEAE Infections and infestations; Mild; n: 1 | TEAE Infections and infestations; Moderate; %: (0.0%) | TEAE Infections and infestations; Moderate; n: 0 | TEAE Infections and infestations; PLT; %: (0.0%) | TEAE Infections and infestations; PLT; n: 0 | TEAE Infections and infestations; Severe; %: (0.0%)
